# Values quoted from earlier work in paper PMC6342991, “Effects of point mutations in the binding pocket of the mouse major urinary protein MUP20 on ligand affinity and specificity” (Scientific Reports, 2019).
# Molecular target: T1, MUP20Y103R (Mus musculus, UniProt Q5FW60, Y103R)
# T1 construct: 6xHis (N); made in house; host or cells: E. coli BL21(DE3), pET5b
# T1 sequence (Q5FW60 20-181 Y103R): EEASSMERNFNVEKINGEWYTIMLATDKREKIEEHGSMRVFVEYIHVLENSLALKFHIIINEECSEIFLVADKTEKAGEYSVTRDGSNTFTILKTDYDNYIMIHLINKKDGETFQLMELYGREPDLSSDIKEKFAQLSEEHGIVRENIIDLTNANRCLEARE
# Set-up: method as in Scorsone et al., IEEE Sensors Journal 2016, 16, 6543, Tab. 1
# Conditions: ref Scorsone et al., IEEE Sensors Journal 2016, 16, 6543, Tab. 1; read-out: Kd, Y103R (starred value); cited from earlier work
structure (smiles),measurement,value
"CC1=CC(=O)c2ccccc2C1=O [MEN, methylnapthalene-1,4-dione]",Kd,1330 nM
